ChEMBL document CHEMBL3638487, “Inhibitors of beta-secretase” (2014)

Target: Beta-secretase 1 (Homo sapiens, UniProt P56817)
Assay: BACE Assay: For each compound being tested, the BACE activity was monitored in a fluorescence quenching assay (FRET) using the ectodomain of BACE (aa 1-454) fused to a myc-his tag and secreted from HEK293/BACEect. cells into OptiMEM (Invitrogen) as enzyme source and a substrate peptide derived from the APP-Swedish mutation which possesses a Cy3-fluorophore at the N-terminus and a Cy5Q-quencher at

## CO[C@H]1CC[C@]2(CC1)Cc1ccc(Br)cc1[C@@]21N=C(N)N(C)C1=O
  IC50: 4510 nM

## CO[C@H]1CC[C@]2(CC1)Cc1ccc(Br)cc1[C@]21N=C(N)N(C)C1=O
  IC50: 15.9 nM
